Assay results as given in US7745424B2, “Alkane diol derivatives as therapeutic agents for the treatment of bone conditions” (The Univeristy Court of the University of Aberdeen, priority 2001, dated 2010).

Test system: macrophage cell line J774
Test: Alamar Blue macrophage J774 viability assay
Conditions: read-out: IC50 (μM) Alamar Blue, 72 hours

O=C(OCCCCO[N+](=O)[O-])c1ccc(-c2ccc([N+](=O)[O-])cc2[N+](=O)[O-])c([N+](=O)[O-])c1
IC50: 35 µM
